Our source for the inhibition values is PubChem BioAssay AID2544 (Sanford-Burnham Center for Chemical Genomics, 2010).

Chains of the proteins cited; added tags and fusions are not shown.
UniProt P09923, whole entry: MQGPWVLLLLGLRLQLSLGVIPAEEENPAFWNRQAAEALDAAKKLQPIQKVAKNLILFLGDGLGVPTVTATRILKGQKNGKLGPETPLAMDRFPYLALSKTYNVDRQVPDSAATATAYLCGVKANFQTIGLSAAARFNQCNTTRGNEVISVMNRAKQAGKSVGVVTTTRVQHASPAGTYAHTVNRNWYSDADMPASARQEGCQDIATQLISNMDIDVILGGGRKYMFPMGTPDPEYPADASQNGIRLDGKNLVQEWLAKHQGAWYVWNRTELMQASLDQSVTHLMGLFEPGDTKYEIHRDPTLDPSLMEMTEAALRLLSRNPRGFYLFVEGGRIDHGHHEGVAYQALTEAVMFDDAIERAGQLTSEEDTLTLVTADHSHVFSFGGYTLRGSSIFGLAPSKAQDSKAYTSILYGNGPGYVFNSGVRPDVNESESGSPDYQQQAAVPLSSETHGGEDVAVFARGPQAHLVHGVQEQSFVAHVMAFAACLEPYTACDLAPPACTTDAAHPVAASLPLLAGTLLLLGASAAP

SMILES strings stand for the structures. Only a part is listed here, and it is no random draw. Some tests of the compounds listed are not included; inactive here does not mean inactive elsewhere. Active and inactive are the calls of the source.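 Rule for the calls: active = inhibition reaching a set limit with compound at 10 µM in the primary screen (cut at about 35% in these data); inactive = the rest.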

For the experiment, the target named is Intestinal-type alkaline phosphatase (Homo sapiens) (UniProt P09923). The experiment in a line: human IAP inhibitors, primary screen, biochemical, luminescence, uHTS (AID 2544).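 Note: plate controls were DMSO wells with enzyme for no effect and no-enzyme buffer wells for full effect.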 The following applies: purified IAP, CDP-Star luminescence, 30 min; at 10 µM; hits give high values.
Regarding `CN(C)C1(CNC(=O)c2ccc(Br)cc2)CCCCC1`, the inhibition was inactive: -9.7%.

Regarding `COc1cc(C(=O)NCC2(N(C)C)CCCCC2)c([N+](=O)[O-])cc1OC`, the inhibition is inactive: -11.9%.

`COc1cccc(C(=O)NCC2(N3CCCCC3)CCCCC2)c1`: the inhibition was inactive: 2.8%.

Consider `COc1ccc(Cl)cc1C(=O)NCC1(N(C)C)CCCCC1`, for which the inhibition is inactive: -3.9%.

On to `O=C(NCC1(N2CCCCC2)CCCCC1)c1cccc(Cl)c1`, for which the inhibition is inactive: -1.2%.

For `O=C(OC1CN2CCC1CC2)C(CO)(c1ccccc1)c1ccccc1` (centres undefined), the inhibition is inactive: 3.9%.

Regarding `COc1ccc(Br)c(C(=O)NCC2(N3CCCCC3)CCCCC2)c1`, the inhibition is inactive: -2.4%.

Take `CN(C)c1cccc(C(=O)NCC2(N(C)C)CCCCC2)c1`: the inhibition is inactive: -8.9%.

In the case of `CC(C)Oc1ccc(C(=O)NCC2(N(C)C)CCCCC2)cc1`, the inhibition is inactive: -14.2%.

Regarding `O=C(NCC1(N2CCCCC2)CCCCC1)c1cc([N+](=O)[O-])ccc1Cl`, the inhibition is inactive: 1.8%.

As for `CN1[C@@H]2CC[C@H]1CC(OC(=O)C(O)(c1ccccc1)c1ccccc1)C2` (some centres undefined), the inhibition was inactive: 13.4%.

On to `CC(C)N1C(=O)CC2(CCN(CCOC(=O)C(O)(c3ccccc3)c3ccccc3)CC2)C1=O`, for which the inhibition is inactive: 28.7%.

On to `CCN(CC)CC(C)C(C)OC(=O)C(O)(c1ccccc1)c1ccccc1` (centres undefined), for which the inhibition was inactive: -2.1%.

Turning to `COc1cc(SC)ccc1C(=O)NCC1(N(C)C)CCCCC1`, the inhibition is inactive: -6.7%.

In the case of `Cc1ccc(C(=O)NCC2(N3CCCCC3)CCCCC2)cc1`, the inhibition was inactive: 8%.

As to `Cc1ccccc1C(=O)NCC1(N2CCCCC2)CCCCC1`, the inhibition was inactive: -2%.

`CN(C)C1CCCC1OC(=O)C(O)(c1ccccc1)c1ccccc1` (centres undefined): the inhibition was inactive: -3.9%.

As for `CN(C)c1ccc(C(=O)NCC2(N(C)C)CCCCC2)cc1`, the inhibition is inactive: -9.3%.

Regarding `C=CCN1CCN(CCOC(=O)C(O)(c2ccccc2)c2ccccc2)CC1`, the inhibition was inactive: -5.1%.

On to `O=C(NCC1(N2CCCCC2)CCCCC1)c1cc(F)c(F)cc1Cl`, for which the inhibition was inactive: -1.8%.

For `Cc1cc(C(=O)NCC2(N3CCCCC3)CCCCC2)ccc1[N+](=O)[O-]`, the inhibition is inactive: 8.1%.

For `CCN1CCCC(OC(=O)C2(O)c3ccccc3C=Cc3ccccc32)C1` (centres undefined), the inhibition was inactive: 1.1%.

Consider `O=C(NCC1(N2CCCCC2)CCCCC1)c1cccc(Br)c1`, for which the inhibition was inactive: -29.6%.

With `COc1ccc(C(=O)NCC2(N(C)C)CCCCC2)cc1`, the inhibition is inactive: 6.2%.
